Measurements taken from PMC9320654, “Study on In Vitro Metabolism and In Vivo Pharmacokinetics of Beauvericin” (Toxins, 2022).
Values joined by “and” are separate entries in the source; they are usually repeats but may differ in a detail not shown here. Identical values can stand only once.

Experiments:
[1] = Metabolic stability in liver microsomes, HLM; type: in vitro ADME, human
Text: (§1) […]. […] […]

[2] = Metabolic stability in liver microsomes, RLM; type: in vitro ADME, Sprague Dawley rat
[3] = Metabolic stability in liver microsomes, DLM; type: in vitro ADME, beagle dog
Text: as §1

[4] = Metabolic stability in cryopreserved hepatocytes, human; type: in vitro ADME; settings: 0.5 × 10^6 cells/mL, 1 μM, n = 2
Procedure: (§2) BEA (10 mM) was incubated in duplicate in a 96-well plate containing a suspension of mouse, rat, monkey, dog, or human hepatocytes (0.5 × 10^6 cells/mL) at 37 °C for 1.5 h in a controlled atmosphere (5% CO2, 95% humidified incubator). BEA and the control were prepared with 50 μL of DMSO and 450 μL of acetonitrile (ACN) to achieve a final concentration of 1 μM, and then spiked into each well of 96-well plates in duplicates. Samples were withdrawn from the reaction mixture at 0, 15, 30, 60, and 90 min and were quenched with stop solution (acetonitrile containing 200 ng/mL tolbutamide and 200 ng/mL labetalol as internal standards). A cocktail of 7-ethoxycoumarin (Lot#: I1825085) was used as the positive control for the assay. The analytical plates were sealed and stored at 4 °C until LC-MS/MS analysis. The data obtained from the BEA metabolic stability assays were used to calculate the intrinsic clearance and remaining percentages, as described in Table 4 and Figure 4.
(§3) The remaining percentages of test articles after incubation were calculated by the following equations:(7) %Remainingat Appointed Time=Peak Area Ratios of Test Article versus Internal Standard at Appointed Time/Peak Area Ratios of Test Article versus Internal Standard 0 min
(§4) We used the equation of first order kinetics to calculate T1/2 and CLint: […]

[5] = Metabolic stability in cryopreserved hepatocytes, rat; type: in vitro ADME, Sprague Dawley rat
Procedure: as §2, §3, §4

[6] = Metabolic stability in cryopreserved hepatocytes, mouse; type: in vitro ADME, CD-1 mouse
Procedure: as §2, §3, §4

[7] = Metabolic stability in cryopreserved hepatocytes, dog; type: in vitro ADME, beagle dog
Procedure: as §2, §3, §4

[8] = Metabolic stability in cryopreserved hepatocytes, monkey; type: in vitro ADME, cynomolgus monkey; settings: 0.5 × 10^6 cells/mL, 1 μM, n = 2
Procedure: as §2, §3, §4

[9] = Plasma stability, human plasma; type: in vitro ADME; settings: human plasma (stated for the plasma of the five species)
Procedure: (§5) The pooled frozen plasma was thawed in a water bath at 37 °C prior to the experiment. Plasma was centrifuged at 4000 rpm for 5 min, and the clots, if any, were removed. Using an Apricot automation workstation, blank plasma (98 μL/well) was added to six 96-well reaction plates (Blank, T0, T10, T30, T60, and T120). An Apricot automation workstation was used to add working solution (2 μL/well, 100 μM) to all reaction plates except the Blank plate (T0, T10, T30, T60, and T120). All reaction plates containing mixtures of compound and plasma were incubated at 37 °C in a water bath. At the end of the incubation, 400 μL of stop solution (200 ng/mL tolbutamide and 200 ng/mL labetalol in acetonitrile) was added to precipitate the protein, and the mixture was mixed thoroughly. Samples were then vortexed and centrifuged (20 min, 4000 rpm, 4 °C). After centrifugation, an Apricot automation workstation was used to transfer 50 μL of supernatant into 100 μL of HPLC water. […] The % remaining test compound after incubation in plasma was calculated using the following equation:(11) % Remaining= PAR at appointed incubation time/PAR at T0 time×100 where PAR is the peak area ratio of analyte versus internal standard (IS). […]

[10] = Plasma stability, rat plasma; type: in vitro ADME
Procedure: The pooled frozen plasma was thawed in a water bath at 37 °C prior to the experiment. Plasma was centrifuged at 4000 rpm for 5 min, and the clots, if any, were removed. Using an Apricot automation workstation, blank plasma (98 μL/well) was added to six 96-well reaction plates (Blank, T0, T10, T30, T60, and T120). An Apricot automation workstation was used to add working solution (2 μL/well, 100 μM) to all reaction plates except the Blank plate (T0, T10, T30, T60, and T120). All reaction plates containing mixtures of compound and plasma were incubated at 37 °C in a water bath. At the end of the incubation, 400 μL of stop solution (200 ng/mL tolbutamide and 200 ng/mL labetalol in acetonitrile) was added to precipitate the protein, and the mixture was mixed thoroughly. Samples were then vortexed and centrifuged (20 min, 4000 rpm, 4 °C). After centrifugation, an Apricot automation workstation was used to transfer 50 μL of supernatant into 100 μL of HPLC water. The positive compounds, such as propantheline bromide (Lot#: R000190915), enalapril maleate salt (Lot#: MKBR8243V), bisacodyl (Lot#: 5-XJZ-44-1), procaine hydrochloride (Lot#: UCFUA-FH), were incubated in parallel with the BEA samples. […] The % remaining test compound after incubation in plasma was calculated using the following equation:(11) % Remaining= PAR at appointed incubation time/PAR at T0 time×100 where PAR is the peak area ratio of analyte versus internal standard (IS).
The appointed incubation time points are T0 (0 min), Tn (n = 0, 10, 30, 60, 120 min).

[11] = Plasma stability, mouse plasma; type: in vitro ADME; settings: mouse plasma (stated for the plasma of the five species)
Procedure: as §5

[12] = Plasma stability, dog plasma; type: in vitro ADME
Procedure: as §5

[13] = Plasma stability, monkey plasma; type: in vitro ADME
Procedure: as §5

[14] = Metabolite identification by LC-UV-MS^n in rat liver microsomes; type: in vitro ADME; settings: RLM
Procedure: The objectives of this study were to search for and to identify the metabolites of BEA in liver microsomes from mice, rats, dogs, monkeys and humans by LC-UV-MS^n (n = 1~2) (based on peak intensity ≥ 1% of total drug related components), and to propose its metabolic pathways.
The test compound BEA at 10 µM was incubated with liver microsomes at 37 °C for 60 min. The positive control, 7-ethoxycoumarin (7-EC) at 10 µM, was run concurrently to assess Phase I metabolic activities in liver microsomes. […] After incubation, the samples were analyzed by LC-UV-MS (Table S7). The structures of the metabolites were proposed based on the interpretation of their MS and MS2 data. The results are presented in Table 6 and Figure 6. %Total=Peak Area of a Releted Component/Peak Area of Total Releted Component×100%

[15] = PK experiments in rats after intravenous or oral administration; type: in vivo, Sprague Dawley rat; settings: rat, n = 3
Procedure: The PK of BEA were evaluated in cannulated male Sprague Dawley rats following an intravenous infusion (1 h) or oral dosing, with N = 3 for each route of administration. Sprague Dawley rats weighing 210 ± 10 g each were obtained from Vital River Laboratory Animal Technology Co., Ltd. (Beijing, China), and were used for pharmacokinetic assessment. All protocols involving animals were approved by the XBL-China Institutional Animal Care and Use Committee (IACUC No.2020-007). Animals were treated in accordance with the Animal Welfare Act and the “Guide for the Care and Use of Laboratory Animals” (NIH Publication 86-23, revised 1985). The animals were supplied with water and a commercial rodent diet ad libitum prior to study initiation. The rats were administered BEA as an intravenous infusion at a dose of 0.5 mg/kg and orally at a dose of 2 mg/kg, respectively. The animals were dosed via the appropriate route at time 0, and samples were collected at several time points up to 24 h following dose administration. Following intravenous infusion administration, blood samples were collected from the jugular vein cannula at predose as well as at 0.083, 0.25, 0.5, 1, 2, 4, 8, and 24 h postdose of BEA. […] Noncompartmental PK parameters such as area under the curve (AUC) and T1/2 were calculated using WinNonlin Professional (version 6.3, Pharsight, Sunnyvale, CA, USA). The absolute oral bioavailability of BEA in rats was calculated by the AUC(0−∞) ratio obtained following oral and i.v. administration. […]
Blood concentration–time curves obtained for each compound were analyzed by means of noncompartmental PK analysis with WinNonlin Professional (version 6.3, Pharsight, Sunnyvale, CA, USA). Following intravenous infusion or bolus administration, the elimination T1/2, total AUC, AUC0−t, systemic blood clearance, and steady-state volume of distribution were calculated using the appropriate noncompartmental model (constant infusion, bolus intravenous injection, and extravascular, respectively). Following oral dosing, Cmax, Tmax, AUC0−t, and AUC0−∞ were calculated. […]

[16] = tested on: human plasma proteins
[17] = Metabolic stability in liver microsomes, MLM
[18] = Metabolic stability in liver microsomes, CLM

Substance: Beauvericin
- CLint(mic) [1]: 30.9 µL/min/mg
- T1/2 ([1]; 1 μM, NADPH, n = 2): > 30 min and 44.9 min
- CLint(mic) [2]: 54.2 µL/min/mg
- T1/2 ([2]; 1 μM, NADPH, n = 2): 25.6 min
- CLint(mic) [3]: 228.7 µL/min/mg
- T1/2 ([3]; 1 μM, NADPH, n = 2): 6.1 min
- T1/2 [4]: > 60 min and 83.3 min
- Remaining % (T = 90 min) ([5]; rat hepatocytes, 90 min): 39.8%
- CLint(liver) ([5]; scaled from rat hepatocyte CLint): 85.7 mL/min/kg
- T1/2 ([6]; mouse hepatocytes, 0.5 × 10^6 cells/mL, 1 μM, n = 2): > 60 min and 71.7 min
- CLint(liver) ([6]; scaled from mouse hepatocyte CLint): 229.7 mL/min/kg
- CLint (hep) (μL/min/10^6) [7]: 89.0 μL/min/10^6
- T1/2 [8]: 28.0 min
- T1/2 in plasma [9]: approximately 5 h
- T1/2 in plasma ([10]; rat plasma (stated for the plasma of the five species)): approximately 5 h
- T1/2 ([10]; rat plasma, 37 °C, n = 2): >289 min
- Remaining % (T = 120 min) ([10]; rat plasma, 120 min): 105.8%
- T1/2 in plasma [11]: approximately 5 h
- T1/2 ([12]; 37 °C, n = 2): >289 min
- Remaining % (T = 120 min) ([12]; 120 min): 113.1%
- T1/2 in plasma ([13]; monkey plasma (stated for the plasma of the five species)): approximately 5 h
- Remaining % (T = 120 min) ([13]; monkey plasma, 120 min): 103.7%
- Number of metabolites detected [14]: 13
- AUC0−t ([15]; i.v., 0.5 mg/kg): 339.0 ± 66.8 ng·h/mL
- CL ([15]; i.v., 0.5 mg/kg): 23.9 ± 4.3 mL/min/kg
- AUC0−t ([15]; p.o., 2 mg/kg): 393.0 ± 54.6 ng·h/mL
- Fu (%), unbound fraction [16]: 0.12%
- Bound Fraction (%) ([16]; dialysis 5 h, 37 °C, BEA 2 μM, warfarin 1 μM, n = 3): > 90% and 99.88 ± 3.53%
- CLint(mic) [17]: 112.7 µL/min/mg
- T1/2 ([17]; 1 μM, NADPH, n = 2): 12.3 min
- CLint(mic) [18]: 191.1 µL/min/mg
- T1/2 ([18]; 1 μM, NADPH, n = 2): 7.3 min
